In ChEMBL document CHEMBL3525927, “Measurement of unbound drug exposure in brain: modeling of pH partitioning explains diverging results between the brain slice and brain homogenate methods” (Drug Metab Dispos, 2011):

Assay: physchem

In the case of `COc1ccc2c3c1O[C@H]1C(=O)CC[C@@]4(O)[C@@H](C2)N(C)CC[C@]314` [OXYCODONE], the pKa is reported as 9.1.
